As a reminder, the Kd is a measure of binding affinity in units of concentration.

The chains behind the UniProt entries cited, without tags or fusion partners. A line that says so, or that is headed by a name, gives the form on record, which may keep a tag or linker.
UniProt P63142, with tags, fused parts or gaps with the stated changes: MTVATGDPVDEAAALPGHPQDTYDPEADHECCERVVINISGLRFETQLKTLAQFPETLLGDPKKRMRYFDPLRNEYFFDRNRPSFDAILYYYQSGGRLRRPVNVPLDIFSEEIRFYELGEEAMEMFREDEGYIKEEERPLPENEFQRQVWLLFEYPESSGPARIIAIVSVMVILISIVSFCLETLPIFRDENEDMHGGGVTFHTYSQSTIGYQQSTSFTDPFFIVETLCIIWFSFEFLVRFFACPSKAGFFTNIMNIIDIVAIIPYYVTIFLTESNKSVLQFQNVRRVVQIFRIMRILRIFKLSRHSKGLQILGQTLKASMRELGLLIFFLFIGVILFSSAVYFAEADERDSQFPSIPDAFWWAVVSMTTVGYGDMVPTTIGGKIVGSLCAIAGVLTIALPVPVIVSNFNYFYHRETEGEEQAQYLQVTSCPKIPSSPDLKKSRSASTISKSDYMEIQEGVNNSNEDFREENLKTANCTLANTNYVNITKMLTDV

The structures appear in SMILES notation.

The target in this assay is T1, Kv2.1 paddle–Kv1.2 chimera channel (paddle chimera) (Rattus norvegicus, UniProt P63142, DEL270-295/F267Y/F302L/I268V/INS296FLTESNKSVLQFQNVRRVVQIF/L298I/N207Q/V299M/V301I).
T1 construct: made in house; host or cells: Pichia pastoris
The assay can be described thus: CTX inhibition of paddle chimera in planar lipid bilayer, dose-response fitted for Kd. The class given is biochemical. Particulars: KCl on both sides; planar bilayer of 20 mg/ml DPhPC; holding −110 mV, depolarized to +110 mV; fit I/Imax = 0.1 + 0.9 × (1 + [CTX]/Kd)^−1; n = 2–4; read-out: affinity (Kd) for inhibition of paddle chimera.

`CSCC[C@@H]1NC(=O)CNC(=O)[C@H](CCCNC(=N)N)NC(=O)[C@H](CO)NC(=O)[C@H]([C@@H](C)O)NC(=O)[C@H](CC(N)=O)NC(=O)[C@H](Cc2c[nH]cn2)NC(=O)[C@H](CC(C)C)NC(=O)[C@H](CCCNC(=N)N)NC(=O)[C@H](CCC(N)=O)NC(=O)[C@@H]2CSSC[C@@H](C(=O)N[C@@H](Cc3ccc(O)cc3)C(=O)N[C@@H](CO)C(=O)O)NC(=O)[C@H](CCCNC(=N)N)NC(=O)[C@@H]3CSSC[C@H](NC(=O)[C@H](CCC(=O)O)NC(=O)[C@H](CCCCN)NC(=O)[C@H](CO)NC(=O)[C@H]([C@@H](C)O)NC(=O)[C@H]([C@@H](C)O)NC(=O)[C@@H](NC(=O)[C@H](CO)NC(=O)[C@@H](NC(=O)[C@H](CC(N)=O)NC(=O)[C@@H](NC(=O)[C@H](Cc4ccccc4)NC(=O)[C@@H]4CCC(=O)N4)[C@@H](C)O)C(C)C)CSSC[C@H](NC1=O)C(=O)N[C@@H](CCSC)C(=O)N[C@@H](CC(N)=O)C(=O)N[C@@H](CCCCN)C(=O)N[C@@H](CCCCN)C(=O)N3)C(=O)N[C@@H](Cc1c[nH]c3ccccc13)C(=O)N[C@@H](CO)C(=O)N[C@@H](C(C)C)C(=O)N2` [Lys27Met CTX]: the Kd was about 630 nM.

The values are drawn from PMC3660741, “Structure of a pore-blocking toxin in complex with a eukaryotic voltage-dependent K^+ channel” (eLife, 2013).
